# Results: publication PMC6832895, “Evaluation of Cyclic Peptide Inhibitors of the Grb7 Breast Cancer Target: Small Change in Cargo Results in Large Change in Cellular Activity” (Molecules, 2019)
# The chains behind the UniProt entries cited, without tags or fusion partners. Residues count along the entry.
# UniProt Q14451, 431-527 limits assumed: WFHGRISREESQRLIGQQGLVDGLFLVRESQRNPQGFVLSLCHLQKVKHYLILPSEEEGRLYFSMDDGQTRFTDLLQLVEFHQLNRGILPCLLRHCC
# “And” between values parts separate entries of the source, which are not always exact repeats. Identical values can stand only once.
# Legend:
# Grb7-SH2 domain = Grb7-SH2 domain (Homo sapiens, UniProt Q14451); assay: ITC binding of G7-peptides to Grb7-SH2
# HeLa cells = assay: Internalization of peptide inside HeLa cells quantified using mass spectrometry; settings: 20 μM peptide, 1 h, 37 °C, LC-MS/MS MRM
# [1] = percentage of total unbound peptide (11 μM in buffer)
smiles,measurement,setting,value
CC[C@H](C)[C@H](NC(=O)[C@H](CCCCN)NC(=O)[C@@H](NC(=O)[C@H](CCC(N)=O)NC(=O)[C@H](CCCNC(=N)N)NC(=O)[C@@H]1CSCC(=O)N[C@@H](Cc2c[nH]c3ccccc23)C(=O)N[C@@H](Cc2ccccc2)C(=O)N[C@@H](CCC(=O)O)C(=O)NCC(=O)N[C@@H](Cc2ccc(O)cc2)C(=O)N[C@@H](CC(=O)O)C(=O)N[C@@H](CC(N)=O)C(=O)N[C@@H]([C@@H](C)O)C(=O)N[C@@H](Cc2ccccc2)C(=O)N2CCC[C@H]2C(=O)N1)[C@@H](C)CC)C(=O)N[C@@H](Cc1c[nH]c2ccccc12)C(=O)N[C@@H](Cc1ccccc1)C(=O)N[C@@H](CCC(N)=O)C(=O)N[C@@H](CC(N)=O)C(=O)N[C@@H](CCCNC(=N)N)C(=O)N[C@@H](CCCNC(=N)N)C(=O)N[C@@H](CCSC)C(=O)N[C@@H](CCCCN)C(=O)N[C@@H](Cc1c[nH]c2ccccc12)C(=O)N[C@@H](CCCCN)C(=O)N[C@@H](CCCCN)C(N)=O [G7-18NATE-Pen],Kd,Grb7-SH2 domain,3.45 µM
same,Kb,"Grb7-SH2 domain; ITC, 25 °C, 1 mM Na3PO4, 20 mM HEPES, 150 mM NaCl, 4 mM β-mercaptoethanol (pH 7.4), single-site binding model",0.290 10^6 M^−1
same,"Total Concentration of Peptide Associated with Cells, Average","HeLa cells; medium without serum, triplicate, repeated on two independent days",696.4 nM
same,"Concentration of Peptide Associated with Pellet, Average","HeLa cells; medium without serum, pellet = membrane-associated, triplicate, two independent days",~300 nM and 312.8 nM
same,"% Unbound Peptide Associated with Pellet, Average",HeLa cells; [1],2.8%
same,"% Unbound Peptide Associated with Supernatant, Average",HeLa cells; [1],2.0%
same,"% Unbound Peptide Associated with Total Cell, Average",HeLa cells; percentage of total unbound peptide (11 μM measurable in buffer at end of incubation),6.2%
